Amino acid sequences for entries named in this document (tags omitted). Residues count along the entry.
UniProt P04629, 33-796 limits assumed: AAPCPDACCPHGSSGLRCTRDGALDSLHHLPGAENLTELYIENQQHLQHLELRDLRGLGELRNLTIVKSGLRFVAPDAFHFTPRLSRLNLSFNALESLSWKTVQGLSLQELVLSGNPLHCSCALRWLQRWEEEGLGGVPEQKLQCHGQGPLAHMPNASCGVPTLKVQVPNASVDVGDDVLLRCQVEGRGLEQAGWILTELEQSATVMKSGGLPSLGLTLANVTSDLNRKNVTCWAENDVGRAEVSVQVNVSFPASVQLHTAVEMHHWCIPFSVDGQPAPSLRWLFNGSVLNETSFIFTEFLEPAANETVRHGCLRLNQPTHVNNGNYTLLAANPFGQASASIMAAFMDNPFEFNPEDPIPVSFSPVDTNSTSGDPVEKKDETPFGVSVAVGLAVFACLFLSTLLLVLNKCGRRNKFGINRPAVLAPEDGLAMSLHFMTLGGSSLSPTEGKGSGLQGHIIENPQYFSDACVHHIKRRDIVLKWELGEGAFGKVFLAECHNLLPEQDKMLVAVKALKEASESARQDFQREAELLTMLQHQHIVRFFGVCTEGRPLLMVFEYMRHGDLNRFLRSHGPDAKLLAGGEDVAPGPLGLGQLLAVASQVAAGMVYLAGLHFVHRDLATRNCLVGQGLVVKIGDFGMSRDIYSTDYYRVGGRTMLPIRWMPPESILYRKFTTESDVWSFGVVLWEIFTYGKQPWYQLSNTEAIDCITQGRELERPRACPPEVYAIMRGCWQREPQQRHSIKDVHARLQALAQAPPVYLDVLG

According to patent US8304547B2, “Azolecarboxamide compound or salt thereof” (Astellas Pharma Inc., priority 2007, dated 2012):

Experiments:
[1] = target: human trkA receptor (Homo sapiens, UniProt P04629); test: trkA receptor inhibitory activity using a cell expressing a nerve growth factor receptor (NGF-dependent increase of calcium concentration in cells, FLIPR); conditions: HEK293 cells stably expressing human trkA receptor, NGF-stimulated change in Ca concentration in cells
Protocol: Experiment to Measure trkA Receptor Inhibitory Activity Using a Cell Expressing a Nerve Growth Factor Receptor (trkA Receptor)
The trkA receptor inhibitory activity was measured by using the increase in a ligand-dependent calcium concentration in cells as an index. HEK293 cells (American Type Culture Collection) that stably expressed a human trkA receptor were dispensed onto a 96-well poly-D-lysine-coated plate (Product Name: Biocoat, PDL96W black/clear, by Nippon Becton Dickinson) to a 2×10^4 cells/well on the day before the experiment, and incubated overnight at 37° C. under 5% carbon dioxide (CO2) in a culture medium containing 10% fetal bovine serum (FBS) (Product Name: DMEM, Invitrogen Corporation). […] The difference between a maximum value and a minimum value in the change of Ca concentrations in cells was determined, and kept as measurement data. […]

[2] = system: rat having urinary frequency caused by cyclophosphamide (CPA); test: Action on a rat having urinary frequency caused by cyclophosphamide (CPA); conditions: CPA-treated Wistar female rat; oral dose 3 mg/kg; evaluation period 5-65 minutes after administration; value before administration = 100%; tested form: dihydrochloride
Protocol: Action of the Compound on a Rat Having Urinary Frequency Caused by Cyclophosphamide (CPA)
CPA (150 mg/5 ml/kg) was intraperitoneally administered to a Wistar female rat (Charles River Laboratories), and after 2 days, the experiment was carried out. It was forced to be orally administered with distilled water (30 ml/kg), and then confined in a metabolic cage, and urine weight and urination frequency were continuously measured for 1 hour. 3 or 10 mg/5 ml/kg of the compound (0.5% methylcellulose solution), or 5 ml/kg of a solvent (0.5% methylcellulose solution) was orally administered, and after 5 to 30 minutes, urination functions were measured after water-loading in the same manner as described above. A total urine weight was divided by the total urination frequency to determine an effective bladder capacity. With the value before administration of the compound being set at 100%, a rate of change in the effective bladder capacity caused by administration of the compound was determined.
In this test, at 2 days after CPA treatment, the effective bladder capacity had decreased (about 0.5 ml), indicating urinary frequency.

IC50 ([1]; tested form: dihydrochloride) [nM] | IC50 [1] [nM] | Compound | Rate in cange of effective bladder capacity [2] [%]
3.1 | – | COCCN(C)c1nc(C(=O)Nc2ccc(OC)cc2C(=O)Nc2cccnc2)cs1 | 149
– | 4.9 | COCCN(C)c1nc(C(=O)Nc2ccsc2C(=O)Nc2cccnc2)cs1 | –
